This is an account of results in paper PMC3577903, “Staphylococcus aureus FepA and FepB Proteins Drive Heme Iron Utilization in Escherichia coli” (PLoS ONE, 2013).

Chains of the proteins cited; added tags and fusions are not shown.
UniProt Q2G130, entry or part of it: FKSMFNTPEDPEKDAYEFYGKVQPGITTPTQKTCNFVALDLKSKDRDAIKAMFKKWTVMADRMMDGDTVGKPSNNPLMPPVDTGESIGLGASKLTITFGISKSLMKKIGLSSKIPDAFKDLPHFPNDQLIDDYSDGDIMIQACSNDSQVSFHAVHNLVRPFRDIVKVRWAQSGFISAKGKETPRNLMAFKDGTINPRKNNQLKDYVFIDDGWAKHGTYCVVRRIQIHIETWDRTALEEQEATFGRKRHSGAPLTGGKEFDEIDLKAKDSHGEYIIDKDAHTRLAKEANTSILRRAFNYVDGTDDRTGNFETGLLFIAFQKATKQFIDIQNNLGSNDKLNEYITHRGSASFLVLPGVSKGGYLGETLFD

Molecules are shown by their SMILES.

This test deals with FepB (FepB-6His, apo-FepB) (Staphylococcus aureus, UniProt Q2G130). Description: biochemical. More on the design: gene SAOUHSC_00326.

In general, Kd refers to the equilibrium constant for the complex coming apart. In turn, `C=CC1=C(C)C2=Cc3c(C=C)c(C)c4[n]3[Fe]([Cl])[n]3c(c(C)c(CCC(=O)O)c3=CC3=NC(=C4)C(C)=C3CCC(=O)O)=CC1=N2` [hemin] registered a Kd of 13.3 ± 2.7 nM.
